Laboratory results taken from patent US20230265183A1 (MABWELL SHANGHAI BIOSCIENCE, published 2023).
Numbering of substitutions follows the chain as printed.

B1: 42D20 hz10 (antibody, V domains shown)
VH: QVQLQESGPGLVKPSETLSLTCTVSGFSLIDYGVSWIRQPPGKGLEWIGVIWGDGKIYYNSVLKSRVTISKDNSKSQVSLKLSSVTAADTAVYYCAKQGGLLFYAMDYWGQGTLVTVSS
VL: DIVMTQSPDSLAVSLGERATINCKSSQSLLNSYSQKNYLAWYQQKPGQPPKLLIYFASTRESGVPDRFSGSGSGTDFTLTISSLQAEDVAVYYCQQHYNTPFTFGAGTKLELKR
notes: Humanized
B2: 42D20 hz63 (antibody, V domains shown)
VH: B1 VH with D54G
VL: B1 VL with S32T, P49S, G74E, V89L, Y93F
notes: Humanized
B3: Enfortumab (antibody, human IgG1, kappa, V domains shown)
VH: EVQLVESGGGLVQPGGSLRLSCAASGFTFSSYNMNWVRQAPGKGLEWVSYISSSSSTIYYADSVKGRFTISRDNAKNSLSLQMNSLRDEDTAVYYCARAYYYGMDVWGQGTTVTVSS
VL: DIQMTQSPSSVSASVGDRVTITCRASQGISGWLAWYQQKPGKAPKFLIYAASTLQSGVPSRFSGSGSGTDFTLTISSLQPEDFATYYCQQANSFPPTFGGGTKVEIKR
notes: also called control antibody Enfortumab

What was measured:
[1] = target: T1, human Nectin-4 (human, UniProt Q96NY8 32-510); test: cell-based or functional assay
T1 sequence (looked up): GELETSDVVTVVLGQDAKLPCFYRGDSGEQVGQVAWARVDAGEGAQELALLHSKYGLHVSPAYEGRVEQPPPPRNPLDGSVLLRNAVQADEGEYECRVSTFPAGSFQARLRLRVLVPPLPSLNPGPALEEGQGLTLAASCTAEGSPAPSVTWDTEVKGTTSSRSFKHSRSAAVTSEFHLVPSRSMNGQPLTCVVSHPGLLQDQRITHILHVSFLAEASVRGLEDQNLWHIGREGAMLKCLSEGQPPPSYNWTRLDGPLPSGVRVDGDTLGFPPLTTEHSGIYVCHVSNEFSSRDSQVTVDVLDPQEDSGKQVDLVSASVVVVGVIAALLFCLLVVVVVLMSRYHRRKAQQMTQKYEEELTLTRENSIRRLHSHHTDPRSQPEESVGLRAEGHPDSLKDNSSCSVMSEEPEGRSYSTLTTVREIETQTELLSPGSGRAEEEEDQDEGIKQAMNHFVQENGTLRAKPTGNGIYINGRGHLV

[2] = target: T2, His-tagged human NECTIN4 (human, UniProt Q96NY8 32-349); test: SPR (BIAcore S200), antigen on CAP chip, antibody as analyte, 1:1 fit
T2 construct: Antigen of the BIAcore assay; also called antigen; recombinant NECTIN4 protein; not shown: His tag
T2 sequence: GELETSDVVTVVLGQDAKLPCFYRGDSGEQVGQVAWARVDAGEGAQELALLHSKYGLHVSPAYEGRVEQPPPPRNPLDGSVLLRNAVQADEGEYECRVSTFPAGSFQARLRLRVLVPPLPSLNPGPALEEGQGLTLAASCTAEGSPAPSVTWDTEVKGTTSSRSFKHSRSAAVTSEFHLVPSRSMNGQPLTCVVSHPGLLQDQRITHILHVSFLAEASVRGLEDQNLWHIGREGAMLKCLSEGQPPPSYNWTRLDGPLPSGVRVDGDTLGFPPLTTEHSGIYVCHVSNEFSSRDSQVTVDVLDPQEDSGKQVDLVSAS
Method: Interactions between the antibodies and the antigen were measured using a BIAcore instrument S200 from GE. Referring to the instructions provided in Biotin Capture Kit from GE Healthcare, the analytical channel and the control sample channel on CAP sensor chip were first coupled with antigen i.e. His-tagged human NECTIN4, then samples containing antibodies (diluted 3-fold from an initial concentration of 20 nM respectively and solutions of each antibody of 8 concentrations were obtained totally, and the concentration 0.741 nM was set to be repeated) were allowed to flow through both the analytical channel and the sample channel, and the photoreactions upon antibody-antigen binding were measured. Association constant Kon and dissociation constant Koff and affinity constant KD of each antibody were finally obtained by instrument software fitting (1:1 binding mode) analysis.

[3] = target: human Nectin-3(C-6His), Novoprotein Cat# C630 (human, UniProt Q9NQS3 58-404, limits assumed); test: ELISA, plate coated with 1 µg/ml human Nectin-3(C-6His), absorbance at 450 nm. The text names only a goat anti-rabbit HRP secondary antibody
Method: Plates were coated with 1 µg/ml of the antigens and incubated at 4° C. overnight; next, antibodies serially diluted were added into the plates. Finally, the HRP-labeled secondary antibody was added, and absorbance at 450 nm was detected. The results are shown in panels 6A, 6B, 6C and 6D in FIG. 6.

Row | Binder | Endocytosis efficiency (%) [1] | koff [2] | kon [2] | binding result [3]
1 | B1 | 52.7% | 0.000946 s⁻¹ | 831000 M⁻¹ s⁻¹ | no binding (tested: 10 µg/ml)
2 | B2 | – | 0.00157 s⁻¹ | 873000 M⁻¹ s⁻¹ | no binding (tested: 10 µg/ml)
3 | B3 | – | – | – | no binding (tested: 10 µg/ml)
